{
  "sequences": {"note": "Amino acid sequences for entries named in this document (tags omitted). A change or cut given only in a name is not applied to a line headed by its entry.", "UniProt Q9H422": "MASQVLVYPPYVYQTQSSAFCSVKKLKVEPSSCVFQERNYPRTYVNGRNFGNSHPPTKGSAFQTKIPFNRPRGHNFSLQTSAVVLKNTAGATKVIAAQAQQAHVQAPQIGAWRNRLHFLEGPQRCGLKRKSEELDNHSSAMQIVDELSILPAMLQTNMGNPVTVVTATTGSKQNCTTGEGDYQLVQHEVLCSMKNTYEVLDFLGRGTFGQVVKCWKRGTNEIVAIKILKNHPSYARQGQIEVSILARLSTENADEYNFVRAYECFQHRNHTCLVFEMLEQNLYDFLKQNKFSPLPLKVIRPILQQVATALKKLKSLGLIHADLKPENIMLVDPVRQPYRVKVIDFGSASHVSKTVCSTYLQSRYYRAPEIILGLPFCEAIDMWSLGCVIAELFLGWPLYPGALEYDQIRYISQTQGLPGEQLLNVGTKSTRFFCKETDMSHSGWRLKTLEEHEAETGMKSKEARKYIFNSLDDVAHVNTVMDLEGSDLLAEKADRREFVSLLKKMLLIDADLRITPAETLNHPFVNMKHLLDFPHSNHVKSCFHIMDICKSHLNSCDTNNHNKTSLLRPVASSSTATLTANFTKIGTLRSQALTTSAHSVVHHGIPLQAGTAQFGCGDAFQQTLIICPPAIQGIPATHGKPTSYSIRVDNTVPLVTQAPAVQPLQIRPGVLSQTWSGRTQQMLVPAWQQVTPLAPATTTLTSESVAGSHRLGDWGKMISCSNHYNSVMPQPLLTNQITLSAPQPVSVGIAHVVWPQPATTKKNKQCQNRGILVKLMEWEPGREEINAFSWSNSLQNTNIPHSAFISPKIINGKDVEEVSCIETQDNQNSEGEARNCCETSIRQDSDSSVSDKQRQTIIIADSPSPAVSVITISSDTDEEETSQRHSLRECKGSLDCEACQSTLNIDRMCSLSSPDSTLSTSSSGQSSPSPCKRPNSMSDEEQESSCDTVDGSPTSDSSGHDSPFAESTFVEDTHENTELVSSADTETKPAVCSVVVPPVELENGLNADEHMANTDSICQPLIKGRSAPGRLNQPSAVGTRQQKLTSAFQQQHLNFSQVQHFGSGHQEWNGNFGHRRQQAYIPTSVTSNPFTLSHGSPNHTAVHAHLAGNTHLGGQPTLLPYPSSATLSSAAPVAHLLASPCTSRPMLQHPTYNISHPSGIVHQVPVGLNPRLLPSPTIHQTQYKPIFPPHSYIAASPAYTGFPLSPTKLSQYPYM", "UniProt P50750, whole entry": "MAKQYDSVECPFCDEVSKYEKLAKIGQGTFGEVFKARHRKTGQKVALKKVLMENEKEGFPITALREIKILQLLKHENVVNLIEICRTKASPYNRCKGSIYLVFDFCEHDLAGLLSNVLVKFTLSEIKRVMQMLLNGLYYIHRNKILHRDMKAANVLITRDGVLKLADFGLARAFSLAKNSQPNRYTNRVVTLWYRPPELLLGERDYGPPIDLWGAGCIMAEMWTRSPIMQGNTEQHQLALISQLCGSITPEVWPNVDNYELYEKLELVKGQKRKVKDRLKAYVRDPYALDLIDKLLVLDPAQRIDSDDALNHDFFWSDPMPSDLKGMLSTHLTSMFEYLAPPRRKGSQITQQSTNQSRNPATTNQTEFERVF", "UniProt P07948": "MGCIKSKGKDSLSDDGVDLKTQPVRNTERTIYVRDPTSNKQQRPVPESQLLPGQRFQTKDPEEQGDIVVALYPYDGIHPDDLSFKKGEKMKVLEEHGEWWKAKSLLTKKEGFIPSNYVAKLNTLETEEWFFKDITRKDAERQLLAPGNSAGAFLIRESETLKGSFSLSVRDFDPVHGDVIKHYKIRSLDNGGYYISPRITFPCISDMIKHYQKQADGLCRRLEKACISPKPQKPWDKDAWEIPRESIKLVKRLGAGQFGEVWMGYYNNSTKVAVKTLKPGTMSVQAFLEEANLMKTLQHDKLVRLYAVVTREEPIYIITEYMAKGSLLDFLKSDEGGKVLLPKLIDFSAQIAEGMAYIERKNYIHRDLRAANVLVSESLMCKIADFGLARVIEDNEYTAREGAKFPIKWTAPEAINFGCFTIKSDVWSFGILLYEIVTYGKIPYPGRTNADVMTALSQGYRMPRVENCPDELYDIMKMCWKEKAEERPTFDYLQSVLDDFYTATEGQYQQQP", "UniProt P36507, whole entry": "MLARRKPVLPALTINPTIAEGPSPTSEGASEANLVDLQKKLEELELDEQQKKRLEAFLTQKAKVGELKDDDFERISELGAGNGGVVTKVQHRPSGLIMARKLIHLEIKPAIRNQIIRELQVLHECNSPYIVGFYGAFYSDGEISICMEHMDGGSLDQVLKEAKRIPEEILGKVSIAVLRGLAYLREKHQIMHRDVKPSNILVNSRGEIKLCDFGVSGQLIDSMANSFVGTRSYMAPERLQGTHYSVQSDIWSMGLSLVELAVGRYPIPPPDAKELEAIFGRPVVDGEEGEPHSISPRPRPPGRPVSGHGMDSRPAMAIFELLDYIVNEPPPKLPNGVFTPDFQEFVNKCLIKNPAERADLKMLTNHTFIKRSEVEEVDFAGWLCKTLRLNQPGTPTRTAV", "UniProt Q86Z02": "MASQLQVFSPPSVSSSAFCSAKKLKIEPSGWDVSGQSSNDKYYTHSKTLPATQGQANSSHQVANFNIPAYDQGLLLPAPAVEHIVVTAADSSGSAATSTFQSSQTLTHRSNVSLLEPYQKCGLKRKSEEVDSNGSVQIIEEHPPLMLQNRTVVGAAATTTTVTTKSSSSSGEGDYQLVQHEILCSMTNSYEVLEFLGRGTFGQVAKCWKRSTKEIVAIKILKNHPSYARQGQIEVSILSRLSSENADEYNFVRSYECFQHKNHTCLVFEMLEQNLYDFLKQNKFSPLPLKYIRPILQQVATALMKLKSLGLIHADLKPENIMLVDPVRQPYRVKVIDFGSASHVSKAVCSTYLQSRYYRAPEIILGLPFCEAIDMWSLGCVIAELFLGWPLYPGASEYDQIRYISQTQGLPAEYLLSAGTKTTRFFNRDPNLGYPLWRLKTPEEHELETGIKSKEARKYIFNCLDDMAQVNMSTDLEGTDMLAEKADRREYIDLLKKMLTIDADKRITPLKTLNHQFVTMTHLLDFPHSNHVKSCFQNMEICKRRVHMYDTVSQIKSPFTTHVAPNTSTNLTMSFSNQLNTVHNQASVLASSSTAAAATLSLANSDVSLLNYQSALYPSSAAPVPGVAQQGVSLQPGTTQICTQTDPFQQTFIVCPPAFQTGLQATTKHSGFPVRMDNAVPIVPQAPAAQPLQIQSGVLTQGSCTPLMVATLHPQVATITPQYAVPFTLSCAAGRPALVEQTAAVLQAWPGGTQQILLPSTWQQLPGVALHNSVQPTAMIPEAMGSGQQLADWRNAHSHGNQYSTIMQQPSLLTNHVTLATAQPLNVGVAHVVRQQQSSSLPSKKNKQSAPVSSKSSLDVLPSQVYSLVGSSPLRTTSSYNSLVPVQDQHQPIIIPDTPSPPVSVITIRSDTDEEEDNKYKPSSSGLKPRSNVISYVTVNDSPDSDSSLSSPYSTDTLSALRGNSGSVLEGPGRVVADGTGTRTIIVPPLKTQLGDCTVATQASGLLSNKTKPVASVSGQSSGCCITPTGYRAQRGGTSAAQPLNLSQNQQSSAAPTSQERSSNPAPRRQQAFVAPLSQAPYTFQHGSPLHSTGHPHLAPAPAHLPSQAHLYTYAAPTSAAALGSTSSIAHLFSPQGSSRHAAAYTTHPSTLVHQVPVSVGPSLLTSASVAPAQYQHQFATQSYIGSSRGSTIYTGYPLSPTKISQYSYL", "UniProt P28482, whole entry": "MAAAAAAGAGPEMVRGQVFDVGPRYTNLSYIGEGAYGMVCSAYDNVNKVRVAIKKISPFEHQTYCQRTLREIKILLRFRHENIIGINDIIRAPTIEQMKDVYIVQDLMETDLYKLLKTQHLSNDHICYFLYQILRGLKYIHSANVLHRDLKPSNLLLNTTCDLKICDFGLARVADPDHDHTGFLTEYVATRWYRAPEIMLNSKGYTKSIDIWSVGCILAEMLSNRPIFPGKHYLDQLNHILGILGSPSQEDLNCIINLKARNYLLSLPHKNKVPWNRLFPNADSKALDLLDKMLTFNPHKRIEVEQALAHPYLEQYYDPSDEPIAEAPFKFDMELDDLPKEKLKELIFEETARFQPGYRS", "UniProt P53671": "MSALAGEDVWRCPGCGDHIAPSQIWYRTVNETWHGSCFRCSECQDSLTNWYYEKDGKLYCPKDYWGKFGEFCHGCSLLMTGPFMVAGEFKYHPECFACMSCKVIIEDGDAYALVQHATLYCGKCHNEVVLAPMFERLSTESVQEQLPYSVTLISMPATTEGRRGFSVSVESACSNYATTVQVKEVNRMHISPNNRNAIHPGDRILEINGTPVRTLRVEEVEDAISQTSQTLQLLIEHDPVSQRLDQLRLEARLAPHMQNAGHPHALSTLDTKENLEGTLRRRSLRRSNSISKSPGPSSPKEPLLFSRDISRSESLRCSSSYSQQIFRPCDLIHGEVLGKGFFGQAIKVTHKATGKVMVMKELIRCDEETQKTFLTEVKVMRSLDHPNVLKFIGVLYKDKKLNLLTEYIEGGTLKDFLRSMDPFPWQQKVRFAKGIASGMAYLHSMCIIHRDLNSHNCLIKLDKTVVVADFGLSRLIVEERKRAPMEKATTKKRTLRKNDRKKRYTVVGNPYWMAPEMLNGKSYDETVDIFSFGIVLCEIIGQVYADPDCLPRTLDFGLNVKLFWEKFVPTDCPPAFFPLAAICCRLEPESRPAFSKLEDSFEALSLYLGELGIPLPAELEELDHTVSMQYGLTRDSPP", "UniProt P08069, whole entry, looked up": "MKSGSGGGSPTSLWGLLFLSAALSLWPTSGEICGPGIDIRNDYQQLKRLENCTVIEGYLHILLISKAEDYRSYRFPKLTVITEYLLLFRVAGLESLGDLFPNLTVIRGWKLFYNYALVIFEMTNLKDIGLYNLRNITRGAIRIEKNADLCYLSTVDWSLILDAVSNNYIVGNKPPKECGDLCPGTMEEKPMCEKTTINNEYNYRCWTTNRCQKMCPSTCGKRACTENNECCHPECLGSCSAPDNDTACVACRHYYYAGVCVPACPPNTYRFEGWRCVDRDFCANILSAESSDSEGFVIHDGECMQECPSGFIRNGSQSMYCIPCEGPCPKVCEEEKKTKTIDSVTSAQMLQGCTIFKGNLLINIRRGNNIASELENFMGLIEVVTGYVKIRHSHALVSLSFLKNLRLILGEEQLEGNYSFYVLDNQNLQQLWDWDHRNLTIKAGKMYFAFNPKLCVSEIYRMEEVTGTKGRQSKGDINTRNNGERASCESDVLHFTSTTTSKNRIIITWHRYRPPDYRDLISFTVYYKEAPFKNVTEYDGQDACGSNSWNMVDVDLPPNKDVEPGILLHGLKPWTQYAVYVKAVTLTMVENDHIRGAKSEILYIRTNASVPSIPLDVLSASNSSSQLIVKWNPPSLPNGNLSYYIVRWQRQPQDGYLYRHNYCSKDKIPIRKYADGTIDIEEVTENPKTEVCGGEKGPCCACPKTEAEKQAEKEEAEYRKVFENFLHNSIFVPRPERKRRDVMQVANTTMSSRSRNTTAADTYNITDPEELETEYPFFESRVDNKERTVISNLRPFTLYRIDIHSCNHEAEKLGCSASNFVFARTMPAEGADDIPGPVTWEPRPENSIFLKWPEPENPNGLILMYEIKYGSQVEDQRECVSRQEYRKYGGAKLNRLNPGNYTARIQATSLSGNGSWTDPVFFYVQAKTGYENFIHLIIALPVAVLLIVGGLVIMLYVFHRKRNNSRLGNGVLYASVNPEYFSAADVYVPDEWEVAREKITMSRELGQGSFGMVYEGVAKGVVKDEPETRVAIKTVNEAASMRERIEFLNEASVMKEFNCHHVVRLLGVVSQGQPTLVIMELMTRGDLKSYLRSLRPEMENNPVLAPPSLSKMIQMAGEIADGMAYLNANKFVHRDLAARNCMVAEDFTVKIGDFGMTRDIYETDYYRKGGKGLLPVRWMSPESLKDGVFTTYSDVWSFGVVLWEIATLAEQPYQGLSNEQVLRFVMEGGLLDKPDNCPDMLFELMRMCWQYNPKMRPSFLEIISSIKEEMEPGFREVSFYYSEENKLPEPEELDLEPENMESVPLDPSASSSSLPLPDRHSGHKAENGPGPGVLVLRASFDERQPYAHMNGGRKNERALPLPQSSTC", "UniProt Q9HBL8": "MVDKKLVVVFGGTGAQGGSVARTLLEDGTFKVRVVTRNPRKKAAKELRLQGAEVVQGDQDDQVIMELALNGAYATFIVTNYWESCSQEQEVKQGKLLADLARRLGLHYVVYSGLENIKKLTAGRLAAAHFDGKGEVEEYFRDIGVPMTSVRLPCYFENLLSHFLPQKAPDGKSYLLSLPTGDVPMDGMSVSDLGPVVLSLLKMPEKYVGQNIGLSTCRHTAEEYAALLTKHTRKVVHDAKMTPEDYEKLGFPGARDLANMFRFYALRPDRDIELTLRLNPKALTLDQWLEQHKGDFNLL"},
  "source": "the supplement of paper PMC11403291",
  "key": {"ALDH2": {"target": "T1, ALDH2 (UniProt P05091)", "T1 sequence (whole entry)": "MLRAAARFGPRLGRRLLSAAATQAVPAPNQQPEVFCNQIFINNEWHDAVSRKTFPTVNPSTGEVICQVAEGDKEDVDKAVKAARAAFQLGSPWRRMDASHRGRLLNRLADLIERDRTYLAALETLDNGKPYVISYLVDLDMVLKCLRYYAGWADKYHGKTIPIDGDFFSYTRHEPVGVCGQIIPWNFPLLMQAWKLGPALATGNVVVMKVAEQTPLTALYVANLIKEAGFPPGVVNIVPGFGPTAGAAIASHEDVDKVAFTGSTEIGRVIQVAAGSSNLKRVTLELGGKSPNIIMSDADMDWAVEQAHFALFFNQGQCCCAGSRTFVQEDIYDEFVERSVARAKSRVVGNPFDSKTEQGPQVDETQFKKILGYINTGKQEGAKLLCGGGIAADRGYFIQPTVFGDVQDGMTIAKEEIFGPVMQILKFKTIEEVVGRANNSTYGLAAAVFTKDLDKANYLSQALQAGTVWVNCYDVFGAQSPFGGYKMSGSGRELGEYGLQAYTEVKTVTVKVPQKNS", "assay": "IC50 of competition for binding to PARP-centric bead matrix", "details": "affinity matrix: PARP family-centric bead mix; lysate: MDA-MB-231"}, "NQO2 [1]": {"target": "T2, NQO2 (UniProt P16083)", "T2 sequence (whole entry)": "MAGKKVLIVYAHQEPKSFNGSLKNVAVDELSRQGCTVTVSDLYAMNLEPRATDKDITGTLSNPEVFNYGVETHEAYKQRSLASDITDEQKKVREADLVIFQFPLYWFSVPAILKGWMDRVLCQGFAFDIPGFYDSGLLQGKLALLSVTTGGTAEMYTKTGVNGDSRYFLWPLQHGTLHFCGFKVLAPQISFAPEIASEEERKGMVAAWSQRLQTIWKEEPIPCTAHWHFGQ", "assay": "IC50 of competition for binding to PARP-centric bead matrix", "details": "affinity matrix: PARP family-centric bead mix; lysate: MDA-MB-231"}, "HIPK3": {"target": "HIPK3 (UniProt Q9H422)", "assay": "IC50 of competition for binding to PARP-centric bead matrix", "details": "affinity matrix: PARP family-centric bead mix; lysate: MDA-MB-231"}, "ICK": {"target": "T3, ICK (UniProt Q9UPZ9)", "T3 sequence (whole entry)": "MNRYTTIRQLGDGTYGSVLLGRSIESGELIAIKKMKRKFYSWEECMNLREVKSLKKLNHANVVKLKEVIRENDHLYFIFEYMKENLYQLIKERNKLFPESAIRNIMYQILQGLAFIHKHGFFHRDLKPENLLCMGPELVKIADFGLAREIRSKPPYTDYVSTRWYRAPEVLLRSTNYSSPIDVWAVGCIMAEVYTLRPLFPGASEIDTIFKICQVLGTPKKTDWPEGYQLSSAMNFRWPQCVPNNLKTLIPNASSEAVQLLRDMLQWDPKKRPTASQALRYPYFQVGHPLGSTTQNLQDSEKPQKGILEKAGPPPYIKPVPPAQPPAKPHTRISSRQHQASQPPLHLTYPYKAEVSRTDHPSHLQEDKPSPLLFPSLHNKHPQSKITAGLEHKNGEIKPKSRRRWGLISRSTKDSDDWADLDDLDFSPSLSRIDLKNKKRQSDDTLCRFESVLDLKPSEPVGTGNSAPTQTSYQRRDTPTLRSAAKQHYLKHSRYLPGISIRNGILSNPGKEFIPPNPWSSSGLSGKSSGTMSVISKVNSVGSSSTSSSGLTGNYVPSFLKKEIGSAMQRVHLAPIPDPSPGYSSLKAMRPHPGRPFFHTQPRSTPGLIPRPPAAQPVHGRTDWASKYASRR", "assay": "IC50 of competition for binding to PARP-centric bead matrix", "details": "affinity matrix: PARP family-centric bead mix; lysate: MDA-MB-231"}, "CDK9": {"target": "CDK9 (UniProt P50750)", "assay": "apparent dissociation constant pKd app (kinobead competition) (-log10(M)); higher = stronger binding"}, "LYN": {"target": "LYN (UniProt P07948)", "assay": "apparent dissociation constant pKd app (kinobead competition) (-log10(M)); higher = stronger binding"}, "PKN3": {"target": "PKN3 (UniProt Q6P5Z2)", "assay": "apparent dissociation constant pKd app (kinobead competition) (-log10(M)); higher = stronger binding"}, "MAP2K2": {"target": "MAP2K2 (UniProt P36507)", "assay": "apparent dissociation constant pKd app (kinobead competition) (-log10(M)); higher = stronger binding"}, "HIPK1": {"target": "HIPK1 (UniProt Q86Z02)", "assay": "apparent dissociation constant pKd app (kinobead competition) (-log10(M)); higher = stronger binding"}, "CAMK2B": {"target": "CAMK2B (UniProt Q13554)", "assay": "apparent dissociation constant pKd app (kinobead competition) (-log10(M)); higher = stronger binding"}, "MAPK1": {"target": "MAPK1 (UniProt P28482)", "assay": "apparent dissociation constant pKd app (kinobead competition) (-log10(M)); higher = stronger binding"}, "LIMK2": {"target": "LIMK2 (UniProt P53671)", "assay": "apparent dissociation constant pKd app (kinobead competition) (-log10(M)); higher = stronger binding"}, "IGF1R": {"target": "IGF1R (UniProt P08069)", "assay": "apparent dissociation constant pKd app (kinobead competition) (-log10(M)); higher = stronger binding"}, "NEK3": {"target": "T4, NEK3 (UniProt P51956)", "T4 sequence (whole entry)": "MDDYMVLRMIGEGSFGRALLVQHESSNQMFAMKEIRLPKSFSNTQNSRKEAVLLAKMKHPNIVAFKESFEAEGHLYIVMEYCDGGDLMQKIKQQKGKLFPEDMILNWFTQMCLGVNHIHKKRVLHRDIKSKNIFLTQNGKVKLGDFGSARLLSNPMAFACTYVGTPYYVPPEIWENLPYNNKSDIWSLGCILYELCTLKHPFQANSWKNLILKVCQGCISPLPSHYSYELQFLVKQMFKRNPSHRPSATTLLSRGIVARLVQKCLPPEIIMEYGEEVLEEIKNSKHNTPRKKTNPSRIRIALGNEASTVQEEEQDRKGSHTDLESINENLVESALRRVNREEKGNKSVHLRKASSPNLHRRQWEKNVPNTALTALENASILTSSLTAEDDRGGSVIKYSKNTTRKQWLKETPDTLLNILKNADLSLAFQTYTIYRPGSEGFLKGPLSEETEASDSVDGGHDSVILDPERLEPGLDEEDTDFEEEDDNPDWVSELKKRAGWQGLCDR", "assay": "apparent dissociation constant pKd app (kinobead competition) (-log10(M)); higher = stronger binding"}, "NQO2 [2]": {"target": "T2, NQO2", "assay": "IC50 of competition for binding to immobilized-niraparib matrix", "details": "affinity matrix: immobilized niraparib (NHS-Sepharose); lysate: 1:1:1:1 mix of HEK293, K-562, placenta, HepG2 Princen"}, "NMRAL1": {"target": "NMRAL1 (UniProt Q9HBL8)", "assay": "IC50 of competition for binding to immobilized-niraparib matrix", "details": "affinity matrix: immobilized niraparib (NHS-Sepharose); lysate: 1:1:1:1 mix of HEK293, K-562, placenta, HepG2 Princen"}},
  "note": "± gives the standard deviation of the averaged measurements.",
  "data": [
    {"smiles": "NC(=O)c1cccc2cn(-c3ccc([C@@H]4CCCNC4)cc3)nc12", "note": "[Niraparib]", "values": [
      {"measurement": "IC50", "setting": "ALDH2", "value": 22, "unit": "µM"},
      {"measurement": "IC50", "setting": "NQO2 [1]", "value": 1.47, "unit": "µM"},
      {"measurement": "IC50", "setting": "HIPK3", "value": 0.17, "unit": "µM"},
      {"measurement": "IC50", "setting": "ICK", "value": 14, "unit": "µM"},
      {"measurement": "apparent dissociation constant pKd app (-log10)", "setting": "CDK9", "value": "< 4.7"},
      {"measurement": "apparent dissociation constant pKd app (-log10)", "setting": "LYN", "value": "< 4.7"},
      {"measurement": "apparent dissociation constant pKd app (-log10)", "setting": "PKN3", "value": "< 4.6"},
      {"measurement": "apparent dissociation constant pKd app (-log10)", "setting": "MAP2K2", "value": "< 4.5"},
      {"measurement": "apparent dissociation constant pKd app (-log10)", "setting": "HIPK1", "value": "5.05 ± 0.071"},
      {"measurement": "apparent dissociation constant pKd app (-log10)", "setting": "CAMK2B", "value": "< 4.9"},
      {"measurement": "apparent dissociation constant pKd app (-log10)", "setting": "MAPK1", "value": "< 4.6"},
      {"measurement": "apparent dissociation constant pKd app (-log10)", "setting": "LIMK2", "value": "< 4.6"},
      {"measurement": "apparent dissociation constant pKd app (-log10)", "setting": "IGF1R", "value": "< 4.5"},
      {"measurement": "apparent dissociation constant pKd app (-log10)", "setting": "NEK3", "value": "< 4.6"},
      {"measurement": "IC50", "setting": "NQO2 [2]", "value": 5.59, "unit": "µM"},
      {"measurement": "IC50", "setting": "NMRAL1", "value": 2.19, "unit": "µM"}
    ]},
    {"smiles": "O=C(c1cc(Cc2n[nH]c(=O)c3ccccc23)ccc1F)N1CCN(C(=O)C2CC2)CC1", "note": "[Olaparib]", "values": [
      {"measurement": "IC50", "setting": "ALDH2", "value": "> 30", "unit": "µM"},
      {"measurement": "IC50", "setting": "NQO2 [1]", "value": 2.44, "unit": "µM"},
      {"measurement": "IC50", "setting": "HIPK3", "value": "> 30", "unit": "µM"},
      {"measurement": "IC50", "setting": "ICK", "value": "> 30", "unit": "µM"},
      {"measurement": "apparent dissociation constant pKd app (-log10)", "setting": "CDK9", "value": "< 4.7"},
      {"measurement": "apparent dissociation constant pKd app (-log10)", "setting": "LYN", "value": "< 4.7"},
      {"measurement": "apparent dissociation constant pKd app (-log10)", "setting": "PKN3", "value": "< 4.6"},
      {"measurement": "apparent dissociation constant pKd app (-log10)", "setting": "MAP2K2", "value": "< 4.5"},
      {"measurement": "apparent dissociation constant pKd app (-log10)", "setting": "HIPK1", "value": "< 4.7"},
      {"measurement": "apparent dissociation constant pKd app (-log10)", "setting": "CAMK2B", "value": "< 4.9"},
      {"measurement": "apparent dissociation constant pKd app (-log10)", "setting": "MAPK1", "value": "< 4.6"},
      {"measurement": "apparent dissociation constant pKd app (-log10)", "setting": "LIMK2", "value": "< 4.6"},
      {"measurement": "apparent dissociation constant pKd app (-log10)", "setting": "IGF1R", "value": "< 4.5"},
      {"measurement": "apparent dissociation constant pKd app (-log10)", "setting": "NEK3", "value": "< 4.6"},
      {"measurement": "IC50", "setting": "NQO2 [2]", "value": 2.3, "unit": "µM"},
      {"measurement": "IC50", "setting": "NMRAL1", "value": 9.7, "unit": "µM"}
    ]},
    {"smiles": "Cn1ncnc1[C@H]1c2n[nH]c(=O)c3cc(F)cc(c23)N[C@@H]1c1ccc(F)cc1", "note": "[Talazoparib]", "values": [
      {"measurement": "IC50", "setting": "ALDH2", "value": "> 30", "unit": "µM"},
      {"measurement": "IC50", "setting": "NQO2 [1]", "value": "> 30", "unit": "µM"},
      {"measurement": "IC50", "setting": "HIPK3", "value": "> 30", "unit": "µM"},
      {"measurement": "IC50", "setting": "ICK", "value": "> 30", "unit": "µM"},
      {"measurement": "apparent dissociation constant pKd app (-log10)", "setting": "CDK9", "value": "< 4.7"},
      {"measurement": "apparent dissociation constant pKd app (-log10)", "setting": "LYN", "value": "< 4.7"},
      {"measurement": "apparent dissociation constant pKd app (-log10)", "setting": "PKN3", "value": "< 4.6"},
      {"measurement": "apparent dissociation constant pKd app (-log10)", "setting": "MAP2K2", "value": "< 4.5"},
      {"measurement": "apparent dissociation constant pKd app (-log10)", "setting": "HIPK1", "value": "< 4.7"},
      {"measurement": "apparent dissociation constant pKd app (-log10)", "setting": "CAMK2B", "value": "< 4.9"},
      {"measurement": "apparent dissociation constant pKd app (-log10)", "setting": "MAPK1", "value": "< 4.6"},
      {"measurement": "apparent dissociation constant pKd app (-log10)", "setting": "LIMK2", "value": "< 4.6"},
      {"measurement": "apparent dissociation constant pKd app (-log10)", "setting": "IGF1R", "value": "< 4.5"},
      {"measurement": "apparent dissociation constant pKd app (-log10)", "setting": "NEK3", "value": "< 4.6"},
      {"measurement": "IC50", "setting": "NQO2 [2]", "value": "> 30", "unit": "µM"},
      {"measurement": "IC50", "setting": "NMRAL1", "value": "> 30", "unit": "µM"}
    ]}
  ]
}
